molecular target: T1, full-length B-Catenin (Uniprot ID P35222) (Homo sapiens, UniProt P35222); format: binding; settings: competition fluorescence polarization; read-out: beta-Catenin FP IC50
T1 construct: 10 nM full-length B-Catenin (Uniprot ID P35222)

Sequences of proteins named here, by UniProt entry; tags and fusion partners are left off.
UniProt P35222, whole entry: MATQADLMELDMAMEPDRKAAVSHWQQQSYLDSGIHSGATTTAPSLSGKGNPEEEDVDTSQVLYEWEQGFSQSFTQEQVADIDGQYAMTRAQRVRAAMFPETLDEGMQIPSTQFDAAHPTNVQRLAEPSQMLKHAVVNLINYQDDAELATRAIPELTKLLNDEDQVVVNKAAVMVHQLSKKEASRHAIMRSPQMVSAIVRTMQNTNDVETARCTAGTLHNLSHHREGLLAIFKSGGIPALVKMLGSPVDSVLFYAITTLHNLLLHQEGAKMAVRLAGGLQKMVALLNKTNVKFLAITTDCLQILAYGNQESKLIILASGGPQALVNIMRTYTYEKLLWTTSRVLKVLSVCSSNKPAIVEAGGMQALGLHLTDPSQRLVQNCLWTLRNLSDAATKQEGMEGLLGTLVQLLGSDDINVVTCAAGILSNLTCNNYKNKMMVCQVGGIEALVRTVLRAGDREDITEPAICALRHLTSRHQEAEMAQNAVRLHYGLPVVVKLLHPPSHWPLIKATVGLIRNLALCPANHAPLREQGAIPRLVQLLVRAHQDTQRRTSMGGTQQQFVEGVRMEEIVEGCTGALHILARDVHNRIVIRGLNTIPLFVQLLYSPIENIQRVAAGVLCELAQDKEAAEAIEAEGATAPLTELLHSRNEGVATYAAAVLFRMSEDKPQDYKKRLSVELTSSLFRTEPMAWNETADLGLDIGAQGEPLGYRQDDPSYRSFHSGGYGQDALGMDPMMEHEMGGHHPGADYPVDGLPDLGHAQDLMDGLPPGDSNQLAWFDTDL

Substance	IC50
Ac-PL3-Asp-Chg-B5-Asp-3COOHF-Ala-Ala-Phe-Lys*3-PyrS2-2ClF-BztA-GlnR*3-NH2 [I-1531]	< 50 nM
Ac-PL3-Asp-Chg-B5-Asp-3COOHF-Ala-Ala-Phe-Lys*3-PyrS2-2MeF-34ClF-GlnR*3-NH2 [I-1518]	< 50 nM
Ac-PL3-Asp-Chg-B5-Asp-3COOHF-Ala-Ala-Phe-Lys*3-PyrS2-3Thi-BztA-GlnR*3-Ala-NH2 [I-976]	< 50 nM
Ac-PL3-Asp-Chg-B5-Asp-3COOHF-Cbg-Ala-Phe-Lys*3-PyrS2-3Thi-BztA-GlnR*3-Ala-NH2 [I-857]	< 50 nM
Ac-PL3-Asp-Chg-B5-Asp-3COOHF-CyLeu-Ala-Phe-Lys*3-PyrS2-2ClF-34ClF-GlnR*3-NH2 [I-1507]	< 50 nM
Ac-PL3-Asp-Chg-B5-Asp-3COOHF-CyLeu-Ala-Phe-Lys*3-PyrS2-3Thi-34ClF-GlnR*3-NH2 [I-1044]	< 50 nM
Ac-PL3-Asp-Chg-B5-Asp-3COOHF-CyLeu-Ala-Phe-Lys*3-PyrS2-Phe-34ClF-GlnR*3-NH2 [I-1056]	< 50 nM
Ac-PL3-Asp-Chg-B5-Asp-3COOHF-Dpg-Ala-Phe-Lys*3-PyrS2-3Thi-BztA-GlnR*3-Ala-NH2 [I-980]	< 50 nM
Ac-PL3-Asp-Chg-B5-Asp-3COOHF-Gly-Ala-Phe-Lys*3-PyrS2-3Thi-BztA-GlnR*3-Ala-NH2 [I-994]	< 50 nM
Ac-PL3-Asp-Chg-B5-Asp-3COOHF-Val-Ala-Phe-Lys*3-PyrS2-3Thi-BztA-GlnR*3-Ala-NH2 [I-978]	< 50 nM
Ac-PL3-Asp-Chg-B5-Asp-3COOHF-nLeu-Ala-Phe-Lys*3-PyrS2-3Thi-BztA-GlnR*3-Ala-NH2 [I-979]	< 50 nM
Ac-PL3-Asp-DipA-B5-Asn-3COOHF-CyLeu-Ala-Phe-Lys*3-PyrS2-3Thi-34ClF-GlnR*3-NH2 [I-1632]	< 50 nM
Ac-PL3-Asp-DipA-B5-Asn-3COOHF-nLeu-Ala-Phe-Lys*3-PyrS2-3Thi-34ClF-GlnR*3-NH2 [I-1638]	< 50 nM
Ac-PL3-Asp-DipA-B5-Asp-3COOHF-Aib-Ala-Phe-Lys*3-PyrS2-3Thi-34ClF-GlnR*3-Ala-NH2 [I-1109]	< 50 nM
Ac-PL3-Asp-DipA-B5-Asp-3COOHF-Aib-Ala-Phe-Lys*3-PyrS2-3Thi-34ClF-GlnR*3-NH2 [I-1108]	< 50 nM
Ac-PL3-Asp-DipA-B5-Asp-3COOHF-Aib-Ala-Phe-Lys*3-PyrS2-3Thi-34ClF-GlnR*3-Ser-NH2 [I-1110]	< 50 nM
Ac-PL3-Asp-DipA-B5-Asp-3COOHF-Aib-Thr-Phe-Lys*3-PyrS2-3Thi-BztA-GlnR*3-Ala-NH2 [I-1005]	< 50 nM
Ac-PL3-Asp-DipA-B5-Asp-3COOHF-Ala-Ala-Phe-Lys*3-PyrS2-3Thi-34ClF-GlnR*3-Ala-Ala-[AdamantC-PEG8]--Lys-NH2 [I-1918]	< 50 nM
Ac-PL3-Asp-DipA-B5-Asp-3COOHF-Ala-Ala-Phe-Lys*3-PyrS2-3Thi-34ClF-GlnR*3-Ala-Ala-[AdamantC-dPEG2]-Lys-NH2 [I-1917]	< 50 nM
Ac-PL3-Asp-DipA-B5-Asp-3COOHF-Ala-Ala-Phe-Lys*3-PyrS2-3Thi-34ClF-GlnR*3-Ala-Ala-[lithocholate-PEG8]-Lys-NH2 [I-1920]	50 to 200 nM
Ac-PL3-Asp-DipA-B5-Asp-3COOHF-Ala-Ala-Phe-Lys*3-PyrS2-3Thi-34ClF-GlnR*3-Ala-Ala-[lithocholate-dPEG2]-Lys-NH2 [I-1919]	50 to 200 nM
Ac-PL3-Asp-DipA-B5-Asp-3COOHF-Ala-Ala-Phe-Lys*3-PyrS2-3Thi-34ClF-GlnR*3-Ala-NH2 [I-1112]	< 50 nM

Substance	IC50
Ac-PL3-Asp-DipA-B5-Asp-3COOHF-Ala-Ala-Phe-Lys*3-PyrS2-3Thi-34ClF-GlnR*3-NH2 [I-1111]	< 50 nM
Ac-PL3-Asp-DipA-B5-Asp-3COOHF-Ala-Ala-Phe-Lys*3-PyrS2-3Thi-34ClF-GlnR*3-Ser-NH2 [I-1113]	< 50 nM
Ac-PL3-Asp-DipA-B5-Asp-3COOHF-Ala-Ala-Phe-Lys*3-PyrS2-3Thi-34ClF-GlnR*3-[mPEG8]-Lys-NH2 [I-1701]	< 50 nM
Ac-PL3-Asp-DipA-B5-Asp-3COOHF-Ala-Ala-Phe-Lys*3-PyrS2-3Thi-34ClF-GlnR*3-[mPEG37]-Lys-NH2 [I-1702]	< 50 nM
Ac-PL3-Asp-DipA-B5-Asp-3COOHF-Ala-Ala-Phe-Lys*3-PyrS2-Phe-BztA-GlnR*3-NH2 [I-1841]	< 50 nM
Ac-PL3-Asp-DipA-B5-Asp-3COOHF-Ala-Ala-Phe-Lys*3-PyrS2-Phe-BztA-GlnR*3-Pro-NH2 [I-1843]	< 50 nM
Ac-PL3-Asp-DipA-B5-Asp-3COOHF-Ala-Ala-Phe-Lys*3-PyrS2-Phe-BztA-GlnR*3-Ser-NH2 [I-1846]	< 50 nM
Ac-PL3-Asp-DipA-B5-Asp-3COOHF-Ala-Ala-Phe-Lys*3-PyrS2-Phe-BztA-GlnR*3-Val-NH2 [I-1847]	< 50 nM
Ac-PL3-Asp-DipA-B5-Asp-3COOHF-Ala-Ala-Phe-Lys*3-PyrS2-Phe-BztA-GlnR*3-dPro-NH2 [I-1844]	< 50 nM
Ac-PL3-Asp-DipA-B5-Asp-3COOHF-Ala-Ala-Phe-Lys*3-PyrS2-Phe-BztA-GlnR*3-dVal-NH2 [I-1848]	< 50 nM
Ac-PL3-Asp-DipA-B5-Asp-3COOHF-Cbg-Ala-Phe-Lys*3-PyrS2-3Thi-BztA-GlnR*3-Ala-NH2 [I-858]	< 50 nM
Ac-PL3-Asp-DipA-B5-Asp-3COOHF-CyLeu-Ala-Phe-Lys*3-PyrS2-2F3MeF-34ClF-GlnR*3-NH2 [I-1640]	> 1000 nM
Ac-PL3-Asp-DipA-B5-Asp-3COOHF-CyLeu-Ala-Phe-Lys*3-PyrS2-2F3MeF-34ClF-GlnR*3-Phe-NH2 [I-1776]	< 50 nM
Ac-PL3-Asp-DipA-B5-Asp-3COOHF-CyLeu-Ala-Phe-Lys*3-PyrS2-2F3MeF-34ClF-GlnR*3-Pro-NH2 [I-1767]	< 50 nM
Ac-PL3-Asp-DipA-B5-Asp-3COOHF-CyLeu-Ala-Phe-Lys*3-PyrS2-2F3MeF-34ClF-GlnR*3-Ser-NH2 [I-1771]	< 50 nM
Ac-PL3-Asp-DipA-B5-Asp-3COOHF-CyLeu-Ala-Phe-Lys*3-PyrS2-2F3MeF-BztA-GlnR*3-Pro-NH2 [I-1768]	< 50 nM
Ac-PL3-Asp-DipA-B5-Asp-3COOHF-CyLeu-Ala-Phe-Lys*3-PyrS2-3Thi-34ClF-GlnR*3-Ala-NH2 [I-1118]	< 50 nM
Ac-PL3-Asp-DipA-B5-Asp-3COOHF-CyLeu-Ala-Phe-Lys*3-PyrS2-3Thi-34ClF-GlnR*3-NH2 [I-1117]	< 50 nM
Ac-PL3-Asp-DipA-B5-Asp-3COOHF-CyLeu-Ala-Phe-Lys*3-PyrS2-3Thi-34ClF-GlnR*3-Ser-NH2 [I-1119]	< 50 nM
Ac-PL3-Asp-DipA-B5-Asp-3COOHF-CyhLeu-Ala-Phe-Lys*3-PyrS2-3Thi-BztA-GlnR*3-Ala-NH2 [I-851]	< 50 nM
Ac-PL3-Asp-DipA-B5-Asp-3COOHF-Gly-Ala-Phe-Lys*3-PyrS2-3Thi-BztA-GlnR*3-Ala-NH2 [I-1000]	< 50 nM
Ac-PL3-Asp-DipA-B5-Asp-3COOHF-Leu-Ala-Phe-Lys*3-PyrS2-Phe-BztA-GlnR*3-NH2 [I-1850]	< 50 nM

Substance	IC50
Ac-PL3-Asp-DipA-B5-Asp-3COOHF-Leu-Ala-Phe-Lys*3-PyrS2-Phe-BztA-GlnR*3-dPro-NH2 [I-1854]	< 50 nM
Ac-PL3-Asp-DipA-B5-Asp-3COOHF-Phe-Ala-Phe-Lys*3-PyrS2-3Thi-34ClF-GlnR*3-Ala-NH2 [I-1115]	< 50 nM
Ac-PL3-Asp-DipA-B5-Asp-3COOHF-Phe-Ala-Phe-Lys*3-PyrS2-3Thi-34ClF-GlnR*3-NH2 [I-1114]	< 50 nM
Ac-PL3-Asp-DipA-B5-Asp-3COOHF-Phe-Ala-Phe-Lys*3-PyrS2-3Thi-34ClF-GlnR*3-Ser-NH2 [I-1116]	< 50 nM
Ac-PL3-Asp-DipA-B5-Asp-3COOHF-Thr-Ala-Phe-Lys*3-PyrS2-3Thi-34ClF-GlnR*3-NH2 [I-1635]	> 1000 nM
Ac-PL3-Asp-DipA-B5-Asp-3COOHF-Thr-Ala-Phe-Lys*3-PyrS2-Phe-BztA-GlnR*3-NH2 [I-1853]	< 50 nM
Ac-PL3-Asp-DipA-B5-Asp-3COOHF-Thr-Ala-Phe-Lys*3-PyrS2-Phe-BztA-GlnR*3-dPro-NH2 [I-1856]	< 50 nM
Ac-PL3-Asp-DipA-B5-Asp-3COOHF-Val-Ala-Phe-Lys*3-PyrS2-Phe-BztA-GlnR*3-NH2 [I-1852]	< 50 nM
Ac-PL3-Asp-DipA-B5-Asp-3COOHF-Val-Ala-Phe-Lys*3-PyrS2-Phe-BztA-GlnR*3-dPro-NH2 [I-1855]	< 50 nM
Ac-PL3-Asp-DipA-B5-Asp-3COOHF-dAla-Ala-Phe-Lys*3-PyrS2-3Thi-BztA-GlnR*3-Ala-NH2 [I-1002]	< 50 nM
Ac-PL3-Asp-DipA-B5-Asp-3COOHF-nLeu-Ala-Phe-Lys*3-PyrS2-3Thi-34ClF-GlnR*3-NH2 [I-1634]	< 50 nM
Ac-PL3-Asp-DipA-B5-Hse-3COOHF-nLeu-Ala-Phe-Lys*3-PyrS2-3Thi-BztA-GlnR*3-NH2 [I-1686]	50 to 200 nM
Ac-PL3-Asp-DipA-B5-Ser-3COOHF-nLeu-Ala-Phe-Lys*3-PyrS2-3Thi-BztA-GlnR*3-NH2 [I-1683]	200 to 750 nM
Ac-PL3-Asp-DipA-B5-Thr-3COOHF-nLeu-Ala-Phe-Lys*3-PyrS2-3Thi-BztA-GlnR*3-NH2 [I-1684]	200 to 750 nM
Ac-PL3-Asp-DipA-B5-aThr-3COOHF-CyLeu-Ala-Phe-Lys*3-PyrS2-3Thi-34ClF-GlnR*3-NH2 [I-1633]	50 to 200 nM
Ac-PL3-Asp-DipA-B5-aThr-3COOHF-nLeu-Ala-Phe-Lys*3-PyrS2-3Thi-34ClF-GlnR*3-NH2 [I-1639]	50 to 200 nM
Ac-PL3-Asp-DipA-B5-aThr-3COOHF-nLeu-Ala-Phe-Lys*3-PyrS2-3Thi-BztA-GlnR*3-NH2 [I-1685]	200 to 750 nM
Ac-PL3-Asp-Ile-B5-Asp-3COOHF-Aib-Ala-Phe-1MeK*3-PyrS2-Phe-34ClF-GlnR*3-NH2 [I-1369]	< 50 nM
Ac-PL3-Asp-Ile-B5-Asp-3COOHF-Aib-Ala-Phe-1MeK*3-PyrS2-Phe-34ClF-dGlnR*3-Ala-NH2 [I-1762]	< 50 nM
Ac-PL3-Asp-Ile-B5-Asp-3COOHF-Aib-Ala-Phe-1MeK*3-PyrS2-Phe-34ClF-dGlnR*3-NH2 [I-1760]	< 50 nM
